Data as given in patent US8658665B2, “3,6-disubstituted xanthylium salts and use thereof in treatment of tauopathies” (WisTa Laboratories Ltd., priority 2008, dated 2014).

Tested on: fibroblast cells (3T6) expressing full-length tau (T40) and the 12 kD PHF-core tau fragment
Test: Cell-based assay for establishing EC50 (inhibition of generation of the 12 kD tau fragment)
Details: concentration giving 50% inhibition of generation of the 12 kD fragment, 3T6 cells, mean ± SE, number of replications in parentheses

SMILES | EC50 | EC50 (Fibroblast)
CCN(CC)c1ccc2cc3ccc(N(CC)CC)cc3[o+]c2c1.[Br-] [Compound F, 3,6-Bis-diethylamino xanthylium bromide] | 42 ± 30 nM | –
CCN(CC)c1ccc2cc3ccc(N(CC)CC)cc3[o+]c2c1.[Cl][Fe]([Cl])([Cl])[Cl] [G, 3,6-bis-diethylamino xanthylium iron tetrachloride] | 79 ± 24 nM | –
CCN(CC)c1ccc2cc3ccc(=[N+](CC)CC)cc-3oc2c1 [I•HNO3, 3,6-Bis-diethylamino xanthylium nitrate.HNO3] | – | 32 ± 7 nM
